The text below walks through data of ChEMBL document CHEMBL5518242, “Discovery and Optimization of Novel Nonbile Acid FXR Agonists as Preclinical Candidates for the Treatment of Inflammatory Bowel Disease” (J Med Chem, 2024).

The source made the active and inactive calls. The calls are words filed in the database; no cut-off is given here.

Assay [1] concerns Mus musculus. Nature of the assay: Anti-inflammatory activity in DSS-induced acute enteritis mouse model assessed as reduction body weight loss at 150 mg/kg, po administered daily for 7 days and measured on day 8. The class given is functional, organism-based. The conditions noted are these: time 8.0 day.
The subject of assay [2] is Mus musculus. As to the kind of experiment: Anti-inflammatory activity in DSS-induced acute enteritis mouse model assessed as reduction disease score index at 150 mg/kg, po administered daily for 7 days and measured on day 8. It counts as functional, organism-based. The conditions noted are these: time 8.0 day.
Assay [3] relates to Mus musculus. Nature of the assay: Anti-inflammatory activity in DSS-induced acute enteritis mouse model assessed as increase in colon length at 150 mg/kg, po administered daily for 7 days and measured on day 8. To be noted: time 8.0 day. The class given is functional, organism-based.
Assay [4] has as its system Mus musculus. Nature of the assay: Anti-inflammatory activity in DSS-induced acute enteritis mouse model assessed as improvement in crypts deformation at 150 mg/kg, po administered daily for 7 days and measured on day 8 by H and E staining based assay. It counts as functional, organism-based. To be noted: time 8.0 day.
In assay [5] the test system is Mus musculus. Nature of the assay: Anti-inflammatory activity in DSS-induced acute enteritis mouse model assessed as improvement in goblet cell destruction at 150 mg/kg, po administered daily for 7 days and measured on day 8 by H and E staining based assay. It counts as functional, organism-based. To be noted: time 8.0 day.
The test system of assay [6] is Mus musculus. Nature of the assay: Anti-inflammatory activity in DSS-induced acute enteritis mouse model assessed as improvement in inflammatory cell infiltration at 150 mg/kg, po administered daily for 7 days and measured on day 8 by H and E staining based assay. It counts as functional, organism-based. The conditions noted are these: time 8.0 day.
The subject of assay [7] is Mus musculus. As to the kind of experiment: Anti-inflammatory activity in DSS-induced acute enteritis mouse model assessed as improvement in mucosal damage at 150 mg/kg, po administered daily for 7 days and measured on day 8 by H and E staining based assay. The class given is functional, organism-based. To be noted: time 8.0 day.
Assay [8] concerns Mus musculus. Nature of the assay: Anti-inflammatory activity in DSS-induced acute enteritis mouse model assessed as increase in mucin production at 150 mg/kg, po administered daily for 7 days and measured on day 8 by immunohistochemical analysis. The class given is functional, organism-based. The conditions noted are these: time 8.0 day.
Assay [9] relates to Mus musculus. As to the kind of experiment: Anti-inflammatory activity in DSS-induced acute enteritis mouse model assessed as reduction in body weight loss at 150 mg/kg, po administered daily for 7 days and measured on day 8 in presence of 10 mg/kg 6-(2-(((5-cyclopropyl-3-(2-(trifluoromethoxy)phenyl)isoxazol-4-yl)methoxy)methyl)-7-azaspiro[3.5]nonan-7-yl)-1-ethyl-1H-indole-3-carboxylic acid. The class given is functional, organism-based. The conditions noted are these: time 8.0 day.

Assay [10] has as its system Mus musculus. Nature of the assay: Anti-inflammatory activity in DSS-induced acute enteritis mouse model assessed as improvement in DAI score at 150 mg/kg, po administered daily for 7 days and measured on day 8 in presence of 10 mg/kg 6-(2-(((5-cyclopropyl-3-(2-(trifluoromethoxy)phenyl)isoxazol-4-yl)methoxy)methyl)-7-azaspiro[3.5]nonan-7-yl)-1-ethyl-1H-indole-3-carboxylic acid. The class given is functional, organism-based. The conditions noted are these: time 8.0 day.

The subject of assay [11] is Mus musculus. Nature of the assay: Anti-inflammatory activity in DSS-induced acute enteritis mouse model assessed as increase in colon length at 150 mg/kg, po administered daily for 7 days and measured on day 8 in presence of 10 mg/kg 6-(2-(((5-cyclopropyl-3-(2-(trifluoromethoxy)phenyl)isoxazol-4-yl)methoxy)methyl)-7-azaspiro[3.5]nonan-7-yl)-1-ethyl-1H-indole-3-carboxylic acid. The class given is functional, organism-based. The conditions noted are these: time 8.0 day.

Assay [12] relates to Mus musculus. As to the kind of experiment: Anti-inflammatory activity in DSS-induced acute enteritis mouse model assessed as lower spleen index at 150 mg/kg, po administered daily for 7 days and measured on day 8 in presence of 10 mg/kg 6-(2-(((5-cyclopropyl-3-(2-(trifluoromethoxy)phenyl)isoxazol-4-yl)methoxy)methyl)-7-azaspiro[3.5]nonan-7-yl)-1-ethyl-1H-indole-3-carboxylic acid. The conditions noted are these: time 8.0 day. The class given is functional, organism-based.

Assay [13] addresses T1, Peroxisome proliferator-activated receptor alpha (Homo sapiens) (UniProt Q07869).
T1 sequence (whole entry): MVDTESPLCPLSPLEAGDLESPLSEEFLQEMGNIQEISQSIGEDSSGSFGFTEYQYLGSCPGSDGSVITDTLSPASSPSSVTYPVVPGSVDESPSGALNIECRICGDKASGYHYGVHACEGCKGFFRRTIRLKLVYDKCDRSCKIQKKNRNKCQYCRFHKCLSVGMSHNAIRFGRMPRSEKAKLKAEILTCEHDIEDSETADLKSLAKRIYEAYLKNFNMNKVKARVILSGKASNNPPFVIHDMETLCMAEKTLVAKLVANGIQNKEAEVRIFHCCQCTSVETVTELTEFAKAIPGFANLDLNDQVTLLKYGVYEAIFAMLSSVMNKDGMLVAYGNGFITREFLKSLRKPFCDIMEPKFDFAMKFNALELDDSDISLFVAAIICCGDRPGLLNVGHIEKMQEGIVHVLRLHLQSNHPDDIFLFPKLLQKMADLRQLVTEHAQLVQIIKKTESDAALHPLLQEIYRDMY
As to the kind of experiment: Agonist activity at Gal4-tagged human PPARalpha LBD expressed in HEK293T cells at 10 uM incubated for 24 hrs TR-FRET assay relative to control. The class given is cell-based. The conditions noted are these: filed as agonist. A general note: TR-FRET usually uses a lanthanide donor and a delayed reading to cut background.

For the molecule `Nc1ccc(C(=O)O)c(O)c1`, the outcome in [1] was inactive. Further, the result in [2], in [3], in assay [4], in assay [5], in assay [6] and in assay [7] was Active. In addition, the result in assay [8], in assay [9], in [10], in [11] and in assay [12] was Active.

The molecule `CCn1cc(C(=O)O)c2ccc(N3CCC4(CC3)CC(COCc3c(-c5ccccc5OC(F)(F)F)noc3C3CC3)C4)cc21` displayed an Activity in assay [13] of 72.6%.
